Measured values as given in ChEMBL document CHEMBL1126929, “Syntheses of 2,5- and 2,6-difluoronorepinephrine, 2,5-difluoroepinephrine, and 2,6-difluorophenylephrine: effect of disubstitution with fluorine on adrenergic activity” (J Med Chem, 1993).

Chains of the proteins cited; added tags and fusions are not shown. Lines headed by an entry give the natural chain unless they say otherwise; changes in a name come on top.
UniProt P22086: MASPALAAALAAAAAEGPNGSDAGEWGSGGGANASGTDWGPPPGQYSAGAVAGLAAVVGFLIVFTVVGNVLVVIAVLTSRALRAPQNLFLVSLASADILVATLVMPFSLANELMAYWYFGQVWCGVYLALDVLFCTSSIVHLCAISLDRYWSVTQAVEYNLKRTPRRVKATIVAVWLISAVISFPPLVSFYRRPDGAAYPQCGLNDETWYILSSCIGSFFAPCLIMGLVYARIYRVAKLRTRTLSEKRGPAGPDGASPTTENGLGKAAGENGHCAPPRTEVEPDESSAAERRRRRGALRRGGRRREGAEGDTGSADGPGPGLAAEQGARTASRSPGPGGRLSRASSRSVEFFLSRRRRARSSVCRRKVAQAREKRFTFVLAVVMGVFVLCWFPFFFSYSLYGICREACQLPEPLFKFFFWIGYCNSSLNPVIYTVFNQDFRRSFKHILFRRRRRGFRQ
UniProt P19328: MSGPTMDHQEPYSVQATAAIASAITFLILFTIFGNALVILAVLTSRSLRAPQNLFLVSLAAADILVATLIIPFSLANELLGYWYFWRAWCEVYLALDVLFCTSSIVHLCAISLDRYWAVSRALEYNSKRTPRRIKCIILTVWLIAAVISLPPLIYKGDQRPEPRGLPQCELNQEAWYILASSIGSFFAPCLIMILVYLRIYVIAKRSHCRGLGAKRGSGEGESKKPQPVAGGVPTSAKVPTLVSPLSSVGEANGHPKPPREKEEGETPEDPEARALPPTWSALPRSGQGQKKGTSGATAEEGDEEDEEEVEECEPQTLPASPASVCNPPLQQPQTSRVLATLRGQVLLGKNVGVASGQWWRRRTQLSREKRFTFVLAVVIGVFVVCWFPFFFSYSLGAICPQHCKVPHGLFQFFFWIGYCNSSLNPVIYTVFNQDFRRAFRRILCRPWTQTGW
UniProt P22909: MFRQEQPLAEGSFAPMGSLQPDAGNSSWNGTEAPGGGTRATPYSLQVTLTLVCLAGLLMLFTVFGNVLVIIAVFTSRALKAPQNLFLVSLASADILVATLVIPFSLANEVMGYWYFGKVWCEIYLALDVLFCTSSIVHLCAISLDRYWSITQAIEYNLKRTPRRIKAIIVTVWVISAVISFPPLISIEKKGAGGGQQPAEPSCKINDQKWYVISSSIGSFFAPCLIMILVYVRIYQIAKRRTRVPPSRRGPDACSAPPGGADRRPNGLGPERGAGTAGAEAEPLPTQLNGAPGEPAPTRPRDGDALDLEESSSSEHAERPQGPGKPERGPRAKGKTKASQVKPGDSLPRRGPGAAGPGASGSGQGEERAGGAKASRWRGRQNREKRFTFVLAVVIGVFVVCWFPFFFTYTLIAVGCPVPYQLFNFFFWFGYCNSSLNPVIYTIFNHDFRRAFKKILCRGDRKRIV

Target: Adrenergic receptor alpha-2 (Rattus norvegicus, UniProt P22086+P19328+P22909)
Experiment: Displacement of [3H]clonidine from adrenergic alpha 2 receptor of rat cerebral cortical membranes
Assay type: cell membranes, Membrane

Compound: CNC[C@H](O)c1ccc(O)c(O)c1 [EPINEPHRINE]
- Ki: 38 nM
